Columns and labels:
[1] = tested on: JIMT-1; assay: In vitro cytotoxicity assay (CCK-8), JIMT-1; format: cell-based, human; settings: ADCs, moderate level of Her2 expression, 120 hours, read-out: Cell Lines (IC50, nM) JIMT-1
Method: (§1) In vitro cytotoxicity assay: • Cytotoxic potencies of the compounds are assessed in flat-bottomed 96-well cell culture plates (Corning Costar) using cell counting Kit-8 (CCK-8) assay (Shanghai Life Lab Biotech Co., Ltd.). Briefly, human tumor cells (2,000-10,000 cells/well, depending on the cell line), in the appropriate culture medium are incubated, with the compounds, or with conjugates in the presence or absence of an excess of the corresponding unconjugated antibodies, for 120 hours, at 37° C., 5% CO2.
(§2) Dispensed 175 μL cell suspension in 96-well plate at 1500 cells per well and incubate for 24 hours in a humidified incubator (37° C., 5% CO2). For antibody blocking, incubate cells (15000 cells/mL) with 2×10^−6 M of trastuzumab (final concentration 1 μM). Added 25 μL various concentrations of compound as a 5× solution into the cell culture medium (Fetal bovine serum, Invitrogen) in the plate and incubated for 120 hours in the incubator. Thawed CCK-8 on the bench top or in a 37° C. water bath, added 10 μL of CCK-8 to each well of the incubated plate (be careful not introducing air bubbles into the wells since they would interfere with the O. D. reading) and then further incubated for 1-4 hours in the incubator. Measured the absorbance at 450 nm using a SpectraMax i3× Microplate Reader and calculated the cell inhibition rate. […]

[2] = tested on: JIMT-1 tumor cells; assay: In vivo efficacy of the ADCs in JIMT-1 CDX model; parameters: species or system mouse; settings: single i.v.; for Regressions Complete / Regressions Partial: 8 mice per group
[3] = tested on: NCI-N87 tumor cells; assay: In vivo efficacy of the ADCs in NCI-N87 CDX model; parameters: species or system mouse; settings: single i.v.; for Regressions Complete / Regressions Partial: 8 mice per group
Method: Each mouse (female Balb/c-Nude from Vital Rivers) was inoculated subcutaneously at the right flank with NCI-N87 tumor cells (5×10^6) mixed with Matrigel (50:50) in 0.2 mL of PBS for tumor development. The animals were randomly grouped on day 6 after tumor inoculation, when the average tumor volume reached around 160 mm^3, then treatment started for the efficacy study. Each group contained 8 mice. The test and control articles were administered to the tumor-bearing mice via tail vein at a volume of 5 mL/kg.
Tumor size was measured twice a week in two dimensions using a caliper, and the volume was expressed in mm^3 using the formula: V=0.5 a×b^2 where a and b were the long and short dimensions of the tumor, respectively. Results were represented by mean and the standard error (Mean±SEM).
Statistical analysis: Two-way ANOVA was performed to compare tumor volume between two groups. All data were analyzed using Graphpad Prism 6.0 and P<0.05 was considered to be statistically significant. Both statistical analysis and biological observations were taken into consideration.
Tumor growth inhibition: The tumor size was used for calculations of T/C values. T/C (%) of relative tumor proliferation rate was calculated using the formula: T/C (%)=(Ti/T0)/(Vi/V0)×100%. […] Ti refer to the mean tumor volume of treatment group measured at each indicated time point following treatment; T0 refer to the tumor volume of treatment group when grouping; Vi refer to the mean tumor volume of vehicle control group measured at each indicated time point following treatment; V0 refer to the tumor volume of vehicle control group when grouping. If T/C>40%, there is no efficacy; if T/C=<40%, and p value<0.05, there is tumor inhibition.

[4] = tested on: MDA-MB-468; assay: In vitro cytotoxicity assay (CCK-8), MDA-MB-468; format: cell-based, human; settings: ADCs, Her2 negative cell line, 120 hours, read-out: Cell Lines (IC50, nM) MDA-MB-468
Method: as §1, §2

DS-8201a: the ADC trastuzumab deruxtecan (DS-8201a, Enhertu), evaluated for comparison
IC50 [1]: 6500 nM
Comments ([2]; 2.5 mg/Kg): active
Regressions Complete ([2]; 2.5 mg/Kg): 0/8
TGI (%) (day 27) ([2]; 2.5 mg/Kg): 66.3%
Comments ([2]; 5 mg/Kg): active
Regressions Complete ([2]; 5 mg/Kg): 0/8
Regressions Partial ([2]; 5 mg/Kg): 4/8
TGI (%) (day 27) ([2]; 5 mg/Kg): 78.4%
Comments ([2]; 10 mg/Kg): highly active
Regressions Complete ([2]; 10 mg/Kg): 0/8
Regressions Partial ([2]; 10 mg/Kg): 7/8
TGI (%) (day 27) ([2]; 10 mg/Kg): 87.5%
Comments ([3]; 0.25 mg/Kg): inactive
Regressions Complete ([3]; 0.25 mg/Kg): 0/8
Regressions Partial ([3]; 0.25 mg/Kg): 0/8
TGI (%) (day 23) ([3]; 0.25 mg/Kg): 24.7%
Comments ([3]; 1 mg/Kg): active
Regressions Complete ([3]; 1 mg/Kg): 0/8
Regressions Partial ([3]; 1 mg/Kg): 0/8
TGI (%) (day 23) ([3]; 1 mg/Kg): 52.2%
Comments ([3]; 4 mg/Kg): highly active
Regressions Complete ([3]; 4 mg/Kg): 0/8
Regressions Partial ([3]; 4 mg/Kg): 8/8
TGI (%) (day 23) ([3]; 4 mg/Kg): 97.3%
IC50 [4]: > 1000 nM

Trastuzumab
Comments ([2]; 10 mg/Kg): inactive
Regressions Complete ([2]; 10 mg/Kg): 0/8
Regressions Partial ([2]; 10 mg/Kg): 0/8
TGI (%) (day 27) ([2]; 10 mg/Kg): 22.5%
Comments ([3]; 4 mg/Kg): inactive
Regressions Complete ([3]; 4 mg/Kg): 0/8
Regressions Partial ([3]; 4 mg/Kg): 0/8
TGI (%) (day 23) ([3]; 4 mg/Kg): 16.8%
